Reference: patent US20240009191A1, “METHOD AND COMPOSITION FOR THE TREATMENT OF DISEASE” (DIMERIX BIOSCIENCE PTY LTD, priority 2019, published 2024)

Protein sequences, listed by entry. Tags and fused reporters are not part of them.
UniProt P25025, whole entry: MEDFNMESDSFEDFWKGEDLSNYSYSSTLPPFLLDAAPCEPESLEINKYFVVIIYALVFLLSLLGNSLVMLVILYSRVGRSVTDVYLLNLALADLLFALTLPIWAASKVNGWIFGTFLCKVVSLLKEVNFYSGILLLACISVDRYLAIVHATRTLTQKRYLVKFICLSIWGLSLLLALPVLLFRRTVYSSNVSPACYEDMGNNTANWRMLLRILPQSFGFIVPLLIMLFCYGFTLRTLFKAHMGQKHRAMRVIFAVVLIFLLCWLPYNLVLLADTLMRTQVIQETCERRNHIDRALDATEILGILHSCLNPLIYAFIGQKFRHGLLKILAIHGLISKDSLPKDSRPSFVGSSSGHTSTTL

Target: AT1R-CXCR2 heteromer (Homo sapiens, UniProt P25025+P30556)
Assay: BRET Gi coupling, CXCR2/Rluc8, Venus/mGsi and HA-AT1R, pre-treatment with antagonists/inverse agonists
Assay type: cell-based
Conditions: FIGS. 6-15
Experimental: HEK293FT cells were seeded in 6-well plates at a density of approximately 700,000 cells/well and maintained at 37° C., 5% CO2 in Complete Media (DMEM containing 0.3 mg/ml glutamine, 100 IU/ml penicillin and 100 μg/ml streptomycin (Gibco/Thermo Fisher)) supplemented with 10% fetal calf serum (FCS; Bovogen). Transient transfections were carried out 24 h after seeding using FuGene6™ (Promega) according to manufacturer instructions. 24 h post-transfection, cells were washed with PBS, detached using 0.05% trypsin/0.53 mM EDTA, resuspended in HEPES-buffered phenol red free Complete Media containing 5% FCS and added to a poly-L-lysine-coated white 96-well microplate (Greiner Bio-One). 48 h post-transfection, bioluminescence resonance energy transfer (BRET) assays were carried out following pre-incubation of cells with EnduRen™ (Promega) at a final concentration of 30 μM, at 37° C., 5% CO2 for 2 h. BRET measurements were taken at 37° C. using the LUMlstar™ or CLARIOstar™ (BMG Labtech).
For antagonist/inverse agonist assays, cells were pre-incubated with EnduRen for 1.5 hours, followed by the addition of vehicle or antagonists/inverse agonists (10 μM) for another 30 minutes.
The BRET signal observed between interacting proteins is normalized by subtracting the background BRET ratio. […] In the following examples, the second calculation will be used and the signal is described as ligand-induced BRET′. Furthermore, for data shown in FIGS. 4 to 20, all data points in a given set are corrected relative to the final data point prior to agonist treatment, which is fixed to zero. In keys on FIGS. 7 to 20, “>” means “followed by after 50 minutes”, with agonists added at time zero on the x-axes.
Prior to agonist treatment (added at 0 minutes), a baseline BRET signal was recorded for each of the combinations for 20 minutes. Data were calculated as ligand-induced BRET relative to the ‘vehicle followed by vehicle’ (veh>veh) data set.

Compound: CCCc1nc(C(C)(C)O)c(C(=O)O)n1Cc1ccc(-c2ccccc2-c2nnn[nH]2)cc1 [olmesartan]
- effect of CXCL8 only on CXCR2/Rluc8-Venus/mGsi BRET (10 nM CXCL8, 50 minutes after pre-treatment with antagonists/inverse agonists (10 μM)): not being altered
- effect of CXCL8 and AngII combined on CXCR2/Rluc8-Venus/mGsi BRET (10 nM CXCL8 and 100 nM AngII, 50 minutes after pre-treatment with antagonists/inverse agonists (10 μM)): indistinguishable from that observed with CXCL8 only
- effect of AngII only on CXCR2/Rluc8-Venus/mGsi BRET (100 nM AngII, 50 minutes after pre-treatment with antagonists/inverse agonists (10 μM)): completely inhibited
